ChEMBL document CHEMBL1811777, “Rational design of potent, small, synthetic allosteric inhibitors of thrombin” (J Med Chem, 2011)

Target: Prothrombin (Homo sapiens, UniProt P00734)
Assay: Inhibition of human alpha-thrombin assessed as spectrozyme TH hydrolysis after 10 mins by spectrophotometric analysis
Outline: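 Human α-thrombin (~5 nM initial) preincubated 10 min with inhibitor (4 μg/ml to 5 mg/ml stocks) at 25 °C. Buffer: 20 mM Tris-HCl pH 7.4, 100 mM NaCl, 2.5 mM CaCl2, 0.1% PEG 8000. 20 μL of 1 mM Spectrozyme TH then added; initial rate read at 405 nm. Fractional residual activity fitted to logistic equation (Hill slope fixed at 1) for IC50 and efficacy ΔY.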

IC50: 89 µM
Structure (SMILES): CCOC(=O)c1c(C)oc2cc(OCc3oc4cc(OC)c(OS(=O)(=O)O)cc4c3C(=O)OCC)c(OC)cc12
